Tests used:
[1] = target: wild-type EGFR kinase (Homo sapiens (Human), UniProt P00533); test: Wild type EGFR kinase inhibition test (z-lyte); type: biochemical; details: read-out: EGFR WT IC50; 10 μM ATP
[2] = target: βBTK Y223 (Homo sapiens (Human), UniProt Q06187); test: Intracellular βBTK Y223 phosphorylation HTRF in Ramos cells; details: read-out: βBTK Y223 IC50
[3] = target: BTK WT (Homo sapiens (Human), UniProt Q06187); test: Lantha screening kinase reaction, inhibition of BTK WT; details: read-out: BTK WT IC50

The chains behind the UniProt entries cited, without tags or fusion partners. Residues count along the entry.
UniProt P00533, 25-1210 limits assumed: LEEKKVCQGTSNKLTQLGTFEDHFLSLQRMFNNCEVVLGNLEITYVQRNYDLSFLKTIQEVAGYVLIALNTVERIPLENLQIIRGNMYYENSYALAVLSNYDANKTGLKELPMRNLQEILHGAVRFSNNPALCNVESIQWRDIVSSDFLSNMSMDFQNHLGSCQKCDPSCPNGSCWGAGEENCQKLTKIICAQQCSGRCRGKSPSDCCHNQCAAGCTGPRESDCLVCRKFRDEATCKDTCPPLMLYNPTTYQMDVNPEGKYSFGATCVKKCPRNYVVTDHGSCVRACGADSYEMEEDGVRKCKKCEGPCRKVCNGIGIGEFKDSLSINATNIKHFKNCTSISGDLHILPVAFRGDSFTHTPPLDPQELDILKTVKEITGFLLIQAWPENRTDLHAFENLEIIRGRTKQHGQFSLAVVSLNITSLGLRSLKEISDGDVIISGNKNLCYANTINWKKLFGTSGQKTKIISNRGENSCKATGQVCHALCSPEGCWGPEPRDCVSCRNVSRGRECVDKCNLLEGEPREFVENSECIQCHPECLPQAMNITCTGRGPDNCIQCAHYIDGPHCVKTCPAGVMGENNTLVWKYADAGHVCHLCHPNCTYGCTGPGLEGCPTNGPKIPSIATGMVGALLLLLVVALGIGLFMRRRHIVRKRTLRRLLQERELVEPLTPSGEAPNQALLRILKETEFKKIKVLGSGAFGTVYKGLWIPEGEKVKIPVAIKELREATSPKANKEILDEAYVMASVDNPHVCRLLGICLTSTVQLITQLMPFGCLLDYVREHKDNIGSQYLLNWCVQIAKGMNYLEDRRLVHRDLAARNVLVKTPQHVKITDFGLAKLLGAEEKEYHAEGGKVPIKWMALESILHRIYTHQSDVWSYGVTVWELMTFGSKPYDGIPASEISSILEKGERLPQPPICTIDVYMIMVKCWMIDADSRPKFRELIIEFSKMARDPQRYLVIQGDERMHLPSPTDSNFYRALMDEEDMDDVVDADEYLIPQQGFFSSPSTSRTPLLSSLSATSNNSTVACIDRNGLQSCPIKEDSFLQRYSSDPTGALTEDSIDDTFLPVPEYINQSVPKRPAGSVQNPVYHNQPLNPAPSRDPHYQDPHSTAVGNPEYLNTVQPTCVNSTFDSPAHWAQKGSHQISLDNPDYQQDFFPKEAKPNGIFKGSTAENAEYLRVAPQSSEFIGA
UniProt Q06187, whole entry: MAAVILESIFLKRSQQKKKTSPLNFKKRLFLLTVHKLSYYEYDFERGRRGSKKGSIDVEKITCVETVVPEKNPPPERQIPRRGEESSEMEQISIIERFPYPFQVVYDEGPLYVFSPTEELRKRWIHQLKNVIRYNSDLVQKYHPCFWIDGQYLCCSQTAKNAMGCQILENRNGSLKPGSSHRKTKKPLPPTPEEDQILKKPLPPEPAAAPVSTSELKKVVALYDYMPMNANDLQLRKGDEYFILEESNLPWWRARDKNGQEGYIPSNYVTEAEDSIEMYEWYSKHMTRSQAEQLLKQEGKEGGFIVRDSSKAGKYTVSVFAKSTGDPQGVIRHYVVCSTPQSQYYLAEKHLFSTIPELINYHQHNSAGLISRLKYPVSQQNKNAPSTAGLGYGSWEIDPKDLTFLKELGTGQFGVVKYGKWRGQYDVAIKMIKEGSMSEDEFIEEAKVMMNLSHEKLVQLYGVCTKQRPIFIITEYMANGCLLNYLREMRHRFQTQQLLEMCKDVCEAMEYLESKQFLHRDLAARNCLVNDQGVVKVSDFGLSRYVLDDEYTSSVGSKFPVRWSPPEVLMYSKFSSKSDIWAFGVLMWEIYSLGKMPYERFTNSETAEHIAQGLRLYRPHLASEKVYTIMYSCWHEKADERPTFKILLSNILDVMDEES

Q: What does the source list for `C=CC(=O)N1CCCC(Nc2nc(Nc3cccc(N4CCOCC4)c3)c3c(c2F)CNC3=O)C1` (stereo not drawn)?
A: IC50 [1]: 3860 nM; IC50 [2]: 12 nM; IC50 [3]: 18 nM

Reference: patent US11155546B2, “4,6,7-trisubstituted 1,2-dihydropyrrolo[3,4-c]pyridin/pyrimidin-3-one derivatives and uses thereof” (SHANGHAI HAIYAN PHARMACEUTICAL TECHNOLOGY CO., LTD., priority 2017, dated 2021)
